Test results taken from PubChem BioAssay AID449762 (Southern Research Specialized Biocontainment Screening …, 2010).
About 1,900 (0.58%) of roughly 330,000 compounds were called active. Listed are the inconclusive results; actives and inactives stand elsewhere. No stated cut-off is given here; in the data, inconclusive means inhibition above about 70% without an active follow-up result; inactive means below that.

Assay: M. tuberculosis growth inhibition, HTS (AID 449762);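 further: bacterial growth assessed after seven days of incubation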
Settings: M. tuberculosis H37Rv growth inhibition, 7H9 media; at 25 µM; stronger effect = higher value

SMILES	inhibition
CC1CCN(C(=O)Oc2c(Cl)cc(Cl)c3cccnc23)CC1	inconclusive: 87.5%
O=[N+]([O-])c1ccc(O)c(/C=N/Nc2ccc([N+](=O)[O-])cc2[N+](=O)[O-])c1	inconclusive: 99.4%
CCC1=CC2Cc3nc4ccc(Cl)cc4c(N)c3C(C1)C2 (stereo unspecified)	inconclusive: 81.8%
Cc1ccc(NCCc2c([N+](=O)[O-])cc([N+](=O)[O-])cc2[N+](=O)[O-])cc1	inconclusive: 98.7%
O=[N+]([O-])c1cc([N+](=O)[O-])c(-c2ccn[nH]2)s1	inconclusive: 99.9%
CCN(CC)C(=S)SC(NC=O)C(Cl)(Cl)Cl (stereo unspecified)	inconclusive: 100%
